# Experimental data reported in PubChem BioAssay AID2025 (NMMLSC, 2009).
# This is a selection; strong and weak results do not stand in their true shares. Active and inactive are the calls of the source.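 How the source made its calls: active means percent response vs DMSO below 50%; inconclusive means fewer than 70 events counted for the yeast strain; inactive means the rest.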
# Assay: RPL19A-GFP expression modulators in yeast, primary screen, cell-based, S. cerevisiae, multiplex flow cytometry, MLPCN (AID 2025);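 further: median channel GFP fluorescence of the barcoded RPL19A-GFP strain; ratio of sample median GFP to plate DMSO average so 100% = DMSO; lower means less RPL19A-GFP as with rapamycin TOR inhibition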
# Settings: S. cerevisiae RPL19A-GFP strain, 3 h, at 10 µM, hits give low values
row,SMILES,percent response vs DMSO
1,O=C(NCC1(N2CCCCC2)CCCCC1)c1ccc(Cl)s1,inactive: 97.7%
2,N#CC1(Nc2ccccc2)CCN(Cc2ccccc2)CC1,inactive: 102%
3,O=C(OC1CN2CCC1CC2)C1c2ccccc2Oc2ccccc21 (stereo not given),inactive: 102%
4,COc1ccc(Cl)cc1C(=O)NCC1(N2CCOCC2)CCCCC1,inactive: 96.2%
5,CCOC(=O)N1CCC(Nc2ccc(OC)cc2)CC1,inactive: 108%
6,O=C(NCC1(N2CCCCC2)CCCCC1)c1ccc(Cl)nc1,inactive: 93%
7,Cc1cc(C)cc(N(C(=O)c2ccccc2)C2CCN(C(=O)OC(C)(C)C)CC2)c1,inactive: 103%
8,O=C(NCC1(N2CCOCC2)CCCCC1)c1cc2ccccc2o1,inactive: 96.5%
9,CSc1ccccc1C(=O)NCC1(N2CCCCC2)CCCCC1,inactive: 106%
10,COc1ccc(C(=O)NCC2(N3CCCCC3)CCCCC2)cc1,inactive: 100%
11,CC(C)(C)OC(=O)N1CCC(N(C(=O)c2ccccc2)c2ccc(F)cc2)CC1,inactive: 100%
12,COc1ccc(C(=O)NCC2(N3CCCCC3)CCCCC2)c(OC)c1OC,inactive: 103%
13,O=C(NCC1(N2CCCCC2)CCCCC1)c1ccc(=O)[nH]c1,inactive: 97.6%
14,O=C(NCC1(N2CCCCC2)CCCCC1)c1cccs1,inactive: 99%
15,CCOC(=O)N1CCC(Nc2cccc(C)c2)CC1,inactive: 107%
16,COc1cc(C(=O)NCC2(N(C)C)CCCCC2)ccc1OC(F)F,inactive: 98.8%
17,Cc1ccc(OCC(C)C)c(CN(CCCl)CCCl)c1,inactive: 98.3%
18,O=C(NCC1(N2CCCCC2)CCCCC1)c1ccc(F)cc1,inactive: 103%
19,COc1ccc(NC2CCN(CCc3ccccc3)CC2)c(OC)c1,inactive: 101%
20,CCOC(=O)N1CCC(Nc2ccc(F)cc2)CC1,inactive: 102%
21,CCOc1ccc(C)cc1CN(CCCl)CCCl,inactive: 91%
22,COc1cc(C(=O)NCC2(N3CCCCC3)CCCCC2)ccc1OC(F)F,inactive: 97.5%

row,SMILES,percent response vs DMSO
1,O=C(NCC1(N2CCOCC2)CCCCC1)c1cc(=O)[nH]c2ccccc12,inactive: 95.5%
2,CN1CCN(CCOC(=O)C(O)(c2ccccc2)c2ccccc2)CC1,inactive: 105%
3,COc1ccc(NC2CCN(C(=O)OC(C)(C)C)CC2)cc1,inactive: 103%
4,O=C(NCC1(N2CCCCC2)CCCCC1)c1cccc(C(F)(F)F)c1,inactive: 104%
5,CCN1CCC(Nc2ccc(Cl)cc2)CC1,inactive: 100%
6,N#CC1(Nc2ccccc2)CCN(CCc2ccccc2)CC1,inactive: 102%
7,O=C(NCC1(N2CCCCC2)CCCCC1)c1cccc([N+](=O)[O-])c1,inactive: 110%
8,O=C(NCC1(N2CCCCC2)CCCCC1)c1ccc(OC(F)F)cc1,inactive: 101%
9,CCCOc1ccc(C(=O)NCC2(N(C)C)CCCCC2)cc1OC,inactive: 92.9%
10,CN1CCC(Nc2cccc(F)c2)CC1,inactive: 106%
11,O=C(NCC1(N2CCCCC2)CCCCC1)c1cncc(Br)c1,inactive: 107%
12,COc1cc(OC)c(C(=O)NCC2(N(C)C)CCCCC2)cc1OC,inactive: 101%
13,O=C(NCC1(N2CCOCC2)CCCCC1)c1cc(F)c(F)cc1Cl,inactive: 95.2%
14,CC(C)c1ccc(NC2CCN(C(=O)OC(C)(C)C)CC2)cc1,inactive: 95.2%
15,COc1ccc(CN(CCCl)CCCl)cc1Cl,inactive: 95.5%
16,CN(C)c1cccc(C(=O)NCC2(N3CCCCC3)CCCCC2)c1,inactive: 103%
17,CCc1cc(C(=O)NCC2(N3CCCCC3)CCCCC2)sc1C,inactive: 90.4%
18,O=C(OC1CN2CCC1CC2)C1c2ccccc2C=Cc2ccccc21 (stereo not given),inactive: 102%
19,CCOC(=O)N1CCC(Nc2ccc(C)cc2)CC1,inactive: 91.3%
20,COc1ccc(C(=O)NCC2(N3CCOCC3)CCCCC2)cc1OC,inactive: 93%
21,COc1cc(C(=O)NCC2(N3CCOCC3)CCCCC2)cc(OC)c1C,inactive: 100%
22,O=C(NCC1(N2CCOCC2)CCCCC1)c1cc(Br)ccc1Cl,inactive: 97.2%

row,SMILES,percent response vs DMSO
1,CN(C)C1(CNC(=O)c2cccc(C#N)c2)CCCCC1,inactive: 105%
2,c1ccc(CN2CCC(Nc3ccccc3)CC2)cc1,inactive: 98.8%
3,CCCN1CCC(Nc2cc(OC)cc(OC)c2)CC1,inactive: 103%
4,N#Cc1ccc(C(=O)NCC2(N3CCCCC3)CCCCC2)cc1,inactive: 104%
5,CC(C)(C)OC(=O)N1CCC(N(C(=O)c2ccccc2)c2ccc(Cl)cc2)CC1,inactive: 106%
6,O=C(NCC1(N2CCCCC2)CCCCC1)c1ccco1,inactive: 99.3%
7,CN(C)c1ccc(C(=O)NCC2(N3CCCCC3)CCCCC2)cc1,inactive: 97%
8,CCN1CCC(Nc2cccc(F)c2)CC1,inactive: 97.2%
9,Cc1ccc(C(=O)NCC2(N3CCCCC3)CCCCC2)o1,inactive: 97%
10,Fc1ccccc1NC1CCN(Cc2ccccc2)CC1,inactive: 98.4%
11,COc1cc(OC)cc(C(=O)NCC2(N3CCCCC3)CCCCC2)c1,inactive: 101%
12,CN1CCC(Nc2ccc(Cl)cc2)CC1,inactive: 101%
13,CCCOc1ccc(C)cc1CN(CCCl)CCCl,inactive: 93.3%
14,COc1cc(OC)cc(C(=O)NCC2(N3CCOCC3)CCCCC2)c1,inactive: 100%
15,COc1cccc(C(=O)N(c2cc(C)cc(C)c2)C2CCN(C(=O)OC(C)(C)C)CC2)c1,inactive: 102%
16,CCC(CO)(C(=O)OC1CN2CCC1CC2)c1ccccc1 (stereo not given),inactive: 101%
17,CC(C)(C)OC(=O)N1CCC(Nc2ccccc2)CC1,inactive: 98.2%
18,O=C(O)C1(Nc2ccccc2)CCN(Cc2ccccc2)CC1,inactive: 95.6%
19,CCCOc1ccc(C(=O)NCC2(N(C)C)CCCCC2)cc1,inactive: 106%
20,CCOc1ncccc1C(=O)NCC1(N2CCOCC2)CCCCC1,inactive: 100%
21,CN1CCC(Nc2ccc(F)c(Cl)c2)CC1,inactive: 108%
